{"sequences": {"note": "Chains of the proteins cited; added tags and fusions are not shown. Residues count along the entry.", "UniProt P29317, 24-976, species assumed": "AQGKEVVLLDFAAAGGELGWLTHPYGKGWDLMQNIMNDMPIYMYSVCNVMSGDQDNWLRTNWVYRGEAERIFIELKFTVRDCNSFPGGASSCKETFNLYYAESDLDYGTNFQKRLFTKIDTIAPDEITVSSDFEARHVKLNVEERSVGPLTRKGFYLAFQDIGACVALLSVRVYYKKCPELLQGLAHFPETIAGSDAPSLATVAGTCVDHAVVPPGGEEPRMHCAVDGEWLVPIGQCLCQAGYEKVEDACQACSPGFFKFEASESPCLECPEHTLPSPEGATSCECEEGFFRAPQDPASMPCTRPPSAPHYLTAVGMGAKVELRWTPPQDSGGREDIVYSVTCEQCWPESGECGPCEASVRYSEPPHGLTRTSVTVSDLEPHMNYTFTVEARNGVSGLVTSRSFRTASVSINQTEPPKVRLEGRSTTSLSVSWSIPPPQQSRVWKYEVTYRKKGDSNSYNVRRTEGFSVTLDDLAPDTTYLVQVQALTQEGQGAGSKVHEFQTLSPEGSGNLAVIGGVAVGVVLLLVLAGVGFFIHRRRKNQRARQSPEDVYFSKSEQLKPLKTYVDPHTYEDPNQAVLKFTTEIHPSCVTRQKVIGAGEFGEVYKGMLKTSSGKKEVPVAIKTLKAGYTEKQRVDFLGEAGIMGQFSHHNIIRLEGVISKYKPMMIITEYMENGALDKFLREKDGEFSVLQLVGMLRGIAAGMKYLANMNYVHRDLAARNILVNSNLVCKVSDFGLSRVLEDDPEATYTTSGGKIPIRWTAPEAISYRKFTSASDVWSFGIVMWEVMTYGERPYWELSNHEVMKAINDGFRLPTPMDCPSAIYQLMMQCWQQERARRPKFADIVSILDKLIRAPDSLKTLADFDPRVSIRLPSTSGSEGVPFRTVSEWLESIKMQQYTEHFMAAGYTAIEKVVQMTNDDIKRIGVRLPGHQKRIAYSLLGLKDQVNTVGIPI", "UniProt P35968, 834-1162 limits assumed": "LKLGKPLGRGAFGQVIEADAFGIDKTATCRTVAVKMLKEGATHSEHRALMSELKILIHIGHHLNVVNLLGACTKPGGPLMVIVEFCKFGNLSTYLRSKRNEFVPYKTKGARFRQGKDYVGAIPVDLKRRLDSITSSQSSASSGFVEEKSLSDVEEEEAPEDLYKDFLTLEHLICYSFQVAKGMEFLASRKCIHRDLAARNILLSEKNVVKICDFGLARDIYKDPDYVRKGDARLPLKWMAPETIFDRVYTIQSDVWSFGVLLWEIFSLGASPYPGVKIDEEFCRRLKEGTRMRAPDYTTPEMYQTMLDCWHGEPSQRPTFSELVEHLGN", "UniProt P00533, 669-1210": "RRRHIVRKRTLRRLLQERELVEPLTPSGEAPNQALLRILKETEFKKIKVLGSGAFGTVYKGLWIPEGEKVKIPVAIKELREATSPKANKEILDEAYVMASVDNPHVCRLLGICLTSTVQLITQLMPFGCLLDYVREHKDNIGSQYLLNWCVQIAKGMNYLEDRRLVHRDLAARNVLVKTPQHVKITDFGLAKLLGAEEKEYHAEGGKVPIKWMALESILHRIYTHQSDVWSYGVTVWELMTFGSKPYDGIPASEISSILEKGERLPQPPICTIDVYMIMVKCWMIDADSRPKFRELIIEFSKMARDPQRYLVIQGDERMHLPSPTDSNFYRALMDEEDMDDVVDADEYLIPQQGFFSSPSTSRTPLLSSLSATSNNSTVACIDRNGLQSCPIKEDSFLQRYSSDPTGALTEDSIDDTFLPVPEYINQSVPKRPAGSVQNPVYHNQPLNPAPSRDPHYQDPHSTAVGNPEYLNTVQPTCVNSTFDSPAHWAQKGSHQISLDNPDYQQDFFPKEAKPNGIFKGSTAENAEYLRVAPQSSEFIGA"}, "source": "patent EP0973746B1", "about": "“SUBSTITUTED 3-CYANO QUINOLINES” (Wyeth Holdings Corporation, priority 1997, dated 1998)", "key": {"[1]": {"molecular_target": "Epithelial Cell Kinase (ECK) (Homo sapiens, UniProt P29317)", "test": "biochemical"}, "[2]": {"molecular_target": "T1, Kinase insert Domain containing Receptor (KDR: the catalytic domain of the VEGF receptor) (Homo sapiens, UniProt P35968)", "T1 construct": "KDR: the catalytic domain of the VEGF receptor", "test": "Inhibition of Kinase insert Domain containing Receptor (KDR);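 for all read-outs here: KDR phosphorylating a Glu:Tyr 4:1 copolymer with P32- or P33-labelled ATP, Mg++ and vanadate, read as acid-insoluble radiolabel, compared with compound-free reaction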", "assay_type": "biochemical"}, "[3]": {"molecular_target": "T2, His-tagged cytoplasmic domain of EGFR (Homo sapiens, UniProt P00533)", "T2 construct": "containing the EGFR cDNA encoding amino acids 645 - 1186 preceded by Met-Ala-(His)6; made in house; host or cells: Sf9 cells, recombinant baculovirus vHcEGFR52", "test": "Inhibition of Epidermal Growth Factor Receptor Kinase (EGF-R) using recombinant enzyme;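 for all read-outs here: radiometric kinase assay measuring radiolabeled phosphate transfer from ATP onto the peptide tyrosine by scintillation counting, control is reaction without compound, background subtracted, IC50 from dose-response curve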", "assay_type": "biochemical", "conditions": "RR-SRC peptide, average of the number of tests"}, "[4]": {"system": "A431", "test": "Inhibition of cancer cell growth as measured by cell number, A431;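 for all read-outs here: human A431 line, picked because it overexpresses epidermal growth factor receptor (EGFR)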", "assay_type": "cell-based, human", "conditions": "Table 8; for IC50: Homo sapiens, A-431, 48 h, read-out: IC50 A431, cell number, Sulforhodamine B, 48 hours exposure"}, "[5]": {"system": "SW620", "test": "Inhibition of cancer cell growth as measured by cell number, SW620;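 note: SW620 was included as a cell line with little or no EGFR or HER2/neu expression, in contrast to receptor-overexpressing lines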", "assay_type": "cell-based, human", "conditions": "for IC50: Homo sapiens, SW-620, 48 h, read-out: IC50 SW620, cell number, Sulforhodamine B, 48 hours exposure"}, "[6]": {"system": "SKBR3", "test": "Inhibition of cancer cell growth as measured by cell number, SKBR3;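 note: SK-BR-3 cells were selected as a line overexpressing HER2/neu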", "assay_type": "cell-based, human", "conditions": "for IC50: Homo sapiens, SK-BR-3, 48 h, read-out: IC50 SKBR3, cell number, Sulforhodamine B, 48 hours exposure"}, "[7]": {"system": "LOX", "test": "Inhibition of cancer cell growth as measured by cell number, LOX;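 note: LOX cells served as a line with low or absent EGFR and HER2/neu expression, in contrast to receptor-overexpressing lines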", "assay_type": "cell-based", "conditions": "Homo sapiens, 48 h, read-out: IC50 LOX"}, "[8]": {"system": "MCF7", "test": "Inhibition of cancer cell growth as measured by cell number, MCF7;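 note: MCF7 was included as a line with little or no EGFR or HER2/neu expression, in contrast to the receptor-overexpressing lines of the panel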", "assay_type": "cell-based", "conditions": "Homo sapiens, MCF7, 48 h, read-out: IC50 MCF7"}, "[9]": {"conditions": "Eck IC50, pH 7.2, nonradioactive format"}, "[10]": {"conditions": "cell number, Sulforhodamine B, 48 hours exposure, Table 8"}}, "note": "Like-named read-outs stand apart in the source and are kept apart here."}
{"compound": "COc1cc2ncc(C#N)c(Nc3ccc(C)c(Br)c3)c2cc1OC", "note": "[Example 248, 4-(3-Bromo-4-methyl-phenylamino)-6.7-dimethoxy-quinoline-3-carbonitrile]", "values": [{"measurement": "IC50", "setting": "[1]; Eck IC50", "result": 25.1, "unit": "µM"}, {"measurement": "IC50", "setting": "[2]", "result": 25.1, "unit": "µM"}]}
{"compound": "CCOc1cc2ncc(C#N)c(Nc3cccc(Br)c3)c2cc1NC(=O)C=CCN1CCOCC1", "note": "[Example 218, 4-Morpholin-4-yl-but-2-enoic acid [4-(3-bromo-phenylamino)-3-cyano-7-ethoxy-quinolin-6-yl]-amide]", "values": [{"measurement": "IC50", "setting": "[3]", "result": 0.017, "unit": "µM"}, {"measurement": "IC50", "setting": "[1]; [9]", "result": "> 37.3", "unit": "µM"}]}
{"compound": "CCOc1cc2ncc(C#N)c(Nc3cccc(Br)c3)c2cc1NC(=O)C=CCN(C)C", "note": "[Example 216, 4-Dimethylamino-but-2-enoic acid [4-(3-bromo-phenylamino)-3-cyano-7-ethoxy-quinolin-6-yl]-amide]", "values": [{"measurement": "IC50", "setting": "[3]", "result": 0.0006, "unit": "µM"}, {"measurement": "IC50", "setting": "[1]; [9]", "result": "> 40.5", "unit": "µM"}, {"measurement": "IC50", "setting": "[4]", "result": 0.032, "unit": "mg/L"}, {"measurement": "IC50 A431", "setting": "[4]; cell number, Sulforhodamine B, 48 hours exposure", "result": 0.024, "unit": "mg/L"}]}
{"compound": "N#Cc1cnc2cc(O)c(O)cc2c1Nc1cccc(Br)c1", "note": "[Example 39, 4-[(3-Bromophenyl)amino]-6,7-dihydroxy-3-quinolinecarbonitrile]", "values": [{"measurement": "IC50", "setting": "[5]; Table 4", "result": 4.43, "unit": "mg/L"}, {"measurement": "IC50", "setting": "[6]; Table 7", "result": 3.65, "unit": "mg/L"}, {"measurement": "IC50", "setting": "[7]", "result": 0.278, "unit": "mg/L"}]}
{"compound": "CCN(CC)CC=CC(=O)Nc1cc2c(Nc3ccc(F)c(Cl)c3)c(C#N)cnc2cc1OC", "note": "[Example 204, 4-Diethylamino-but-2-enoic acid [4-(3-chloro-4-fluorophenylamino)-3-cyano-7-methoxy-quinolin-6-yl]-amide]", "values": [{"measurement": "IC50", "setting": "[5]; Table 8", "result": 0.34, "unit": "mg/L"}, {"measurement": "IC50 SW620", "setting": "[5]; [10]", "result": 0.347, "unit": "mg/L"}, {"measurement": "IC50", "setting": "[6]; Table 8", "result": 0.026, "unit": "mg/L"}, {"measurement": "IC50 SKBR3", "setting": "[6]; [10]", "result": 0.029, "unit": "mg/L"}]}
{"compound": "C=C(CN1CCOCC1)C(=O)Nc1ccc2ncc(C#N)c(Nc3ccc(F)c(Cl)c3)c2c1", "note": "[Example 148, N-{4-[(3-chloro-4-fluorophenyl)amino]-3-cyano-6-quinolinyl}-2-morpholin-4-ylmethyl-2-propenamide]", "values": [{"measurement": "IC50", "setting": "[3]", "result": 0.001, "unit": "µM"}, {"measurement": "IC50", "setting": "[1]; [9]", "result": "> 42.9", "unit": "µM"}, {"measurement": "IC50", "setting": "[4]", "result": 0.195, "unit": "mg/L"}]}
{"compound": "COc1ccc2c(Nc3cccc(Br)c3)c(C#N)cnc2c1", "note": "[Example 3, 4-[(3-Bromophenyl)amino]-7-methoxy-3-guinolinecarbonitrile]", "values": [{"measurement": "IC50", "setting": "[5]; Table 4", "result": 9.55, "unit": "mg/L"}, {"measurement": "IC50", "setting": "[6]; Table 7", "result": 6.9, "unit": "mg/L"}, {"measurement": "IC50", "setting": "[7]", "result": 1.42, "unit": "mg/L"}, {"measurement": "IC50", "setting": "[8]", "result": 6.17, "unit": "mg/L"}]}
{"compound": "CCN(CC)CC#CC(=O)Nc1ccc2ncc(C#N)c(Nc3cccc(Br)c3)c2c1", "note": "[Example 187, N-[4-[(3-Bromophenyl)amino]-3-cyano-6-quinolinyl]-4-diethylamino-2-butynamide]", "values": [{"measurement": "IC50", "setting": "[8]", "result": 0.42, "unit": "mg/L"}]}
{"compound": "N#Cc1cnc2ccc([N+](=O)[O-])cc2c1Nc1cccc(C(F)(F)F)c1", "note": "[Example 23, 6-Nitro-4[(3-trifluoromethylphenyl)amino]-3-quinolinecarbonitrile]", "values": [{"measurement": "IC50", "setting": "[6]; Table 7", "result": 48, "unit": "mg/L"}, {"measurement": "IC50", "setting": "[7]", "result": 7.92, "unit": "mg/L"}, {"measurement": "IC50", "setting": "[8]", "result": 47.9, "unit": "mg/L"}]}
{"compound": "COc1cc2ncc(C#N)c(Nc3ccc(F)c(Cl)c3)c2cc1NC(=O)C=CCN(C)C", "note": "[Example 203, 4-Dimethylamino-but-2-enoic acid [4-(3-chloro-4-fluorophenylamino)-3-cyano-7-methoxy-quinolin-6-yl]-amide]", "values": [{"measurement": "IC50", "setting": "[5]; Table 8", "result": 1.73, "unit": "mg/L"}]}
